From ChEMBL document CHEMBL1133514, “Activation mechanisms of nucleoside phosphoramidate prodrugs” (J Med Chem, 2000) come the findings set out here.

SMILES strings stand for the structures.

Data set [1] is described as follows: Half-life period for the compound was determined. Format: ADME. In a few lines:
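Compound (0.015-0.076 mmol) dissolved in about 90 µL CH3CN or THF, then diluted to 0.50 mL with 0.1-0.4 M cacodylate or acetate buffer; pH 7.4 target (7.0-8.0 accepted), 37 °C. Monitored by 31P NMR every 2.5 min for 30 min, then every 5 min; relative peak areas fitted by least squares to first-order kinetics to give rate constants and t1/2.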

A short description of data set [2]: Rate constants determined using 31P NMR Kinetics experiments at 37 degrees Centigrade.

The compound `CCN(CC)CC.CN(CCBr)P(=O)(O)OCC1CCCO1` (configuration not stated) had a T1/2 in data set [1] of 2 min. Besides, the K in data set [2] came to 0.34 min⁻¹.
